# Read-outs that look alike come from different tables or passages of the source.
# Protein sequences, listed by entry. Tags and fused reporters are not part of them. Lines headed by an entry give the natural chain unless they say otherwise; changes in a name come on top.
# UniProt P56373: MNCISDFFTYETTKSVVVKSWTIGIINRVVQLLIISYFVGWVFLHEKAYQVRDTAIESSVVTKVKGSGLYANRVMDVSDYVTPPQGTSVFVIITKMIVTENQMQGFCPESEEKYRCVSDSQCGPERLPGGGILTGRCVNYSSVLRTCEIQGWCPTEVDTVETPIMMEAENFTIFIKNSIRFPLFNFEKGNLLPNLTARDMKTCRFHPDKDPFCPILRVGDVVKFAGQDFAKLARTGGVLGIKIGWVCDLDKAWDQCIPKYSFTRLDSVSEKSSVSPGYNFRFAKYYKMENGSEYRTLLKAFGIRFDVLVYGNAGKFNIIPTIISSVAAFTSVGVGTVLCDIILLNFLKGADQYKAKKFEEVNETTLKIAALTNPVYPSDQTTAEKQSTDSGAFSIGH
# UniProt Q9UBL9: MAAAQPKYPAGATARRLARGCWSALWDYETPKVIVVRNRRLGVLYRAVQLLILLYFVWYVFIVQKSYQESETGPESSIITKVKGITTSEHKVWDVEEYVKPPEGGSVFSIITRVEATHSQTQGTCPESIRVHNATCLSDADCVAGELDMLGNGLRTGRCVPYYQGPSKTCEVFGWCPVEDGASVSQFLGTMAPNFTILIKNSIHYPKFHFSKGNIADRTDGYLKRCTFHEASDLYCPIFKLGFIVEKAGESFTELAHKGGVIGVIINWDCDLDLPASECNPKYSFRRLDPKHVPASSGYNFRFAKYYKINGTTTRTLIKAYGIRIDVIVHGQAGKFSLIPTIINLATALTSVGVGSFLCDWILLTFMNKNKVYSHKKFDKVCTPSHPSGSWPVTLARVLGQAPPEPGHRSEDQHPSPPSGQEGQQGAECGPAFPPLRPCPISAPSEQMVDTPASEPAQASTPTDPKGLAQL
# What was measured:
# human P2X2/3 receptor = human P2X2/3 receptor (Homo sapiens (Human), UniProt P56373+Q9UBL9); test: Intracellular calcium measurement (FLIPR, Fluo-4) of antagonist activity at human P2X2/3 receptors; assay type: cell-based
# human P2X3 receptor = human P2X3 receptor (Homo sapiens (Human), UniProt P56373)
# [1] = human P2X2/3, FLIPR calcium assay, agonist α,β-Me-ATP, read-out: hP2X2/3 IC50
# [2] = hP2X3 IC50 (nM), human P2X3, FLIPR calcium assay, agonist α,β-Me-ATP
# [3] = read-out: hP2X3 IC50, human P2X3, FLIPR calcium assay, agonist α,β-Me-ATP
IC50 (human P2X2/3 receptor; [1]) [nM],Compound,IC50 (human P2X3 receptor; [2]) [nM],also measured
–,"Cc1cnc(-c2cc(OC[C@@H]3CCCO3)cc(C(=O)NCc3ncc(Cl)cc3F)c2)s1 [Example 55, N-[(5-Chloro-3-fluoropyridin-2-yl)methyl]-3-(5-methyl-1,3-thiazol-2-yl)-5-[(2S)-tetrahydrofuran-2-ylmethoxy]benzamide]",–,IC50 (human P2X2/3 receptor; hP2X2/3 IC50 (nM)): 325 nM
≥ 10000,"Cc1cnc(-c2cc(O[C@H]3CCOC3)cc(C(=O)NC(C)c3nnc(C(F)(F)F)s3)c2)s1 (single isomer, unassigned) [Example 199]",1540,–
≥ 10000,"Cc1cnc(-c2cc(O[C@@H]3CCOC3)cc(C(=O)NC(C)c3nnc(C(F)(F)F)s3)c2)s1 (single isomer, unassigned) [Example 197]",1150,–
–,"Cc1cnc(-c2cc(OC3CCOCC3)cc(C(=O)NC(C)c3nnc(C(F)(F)F)s3)c2)s1 (single isomer, unassigned) [Example 195, 3-(5-methyl-1,3-thiazol-2-yl)-5-(tetrahydro-2H-pyran-4-yloxy)-N-{1-[5-(trifluoromethyl)-1,3,4-thiadiazol-2-yl]ethyl}benzamide]",380,–
545,"Cc1cnc(-c2cc(OC[C@@H]3CN(C(=O)OC(C)(C)C)CCO3)cc(C(=O)N[C@H](C)c3cnc(C(F)(F)F)nc3)c2)s1 [Example 349, Tert-butyl (2S)-2-{[3-(5-methyl-1,3-thiazol-2-yl)-5-({(1R)-1-[2-(trifluoromethyl)pyrimidin-5-yl]ethyl}carbamoyl)phenoxy]methyl}morpholine-4-carboxylate]",–,–
35,"Cc1cnc(-c2cc(OCC3CN(C)CCC3(F)F)cc(C(=O)N[C@H](C)c3cnc(C(F)(F)F)nc3)c2)s1 (stereo partly drawn) [Example 383, 3-{[4,4-difluoro-1-methylpiperidin-3-yl]methoxy}-5-(5-methyl-1,3-thiazol-2-yl)-N-{(1R)-1-[2-(trifluoromethyl)pyrimidin-5-yl]ethyl}benzamide]",–,IC50 (human P2X3 receptor; [3]): 2 nM
–,"Cc1cnc(-c2cc(OCC3(C)CCOC3)cc(C(=O)N[C@H](C)c3cnc(C(F)(F)F)nc3)c2)s1 (single isomer, unassigned) [Example 333]",4,–
–,"Cc1cnc(-c2cc(OC3CCC(=O)N(C)C3)cc(C(=O)N[C@H](C)c3cnc(C(F)(F)F)nc3)c2)s1 (single isomer, unassigned) [Example 337]",13,–
334,"Cc1cnc(-c2cc(OC[C@H]3CN(C(=O)OC(C)(C)C)CCO3)cc(C(=O)N[C@H](C)c3cnc(C(F)(F)F)nc3)c2)s1 [Example 346, Tert-butyl (2R)-2-{[3-(5-methyl-1,3-thiazol-2-yl)-5-({(1R)-1-[2-(trifluoromethyl)pyrimidin-5-yl]ethyl}carbamoyl)phenoxy]methyl}morpholine-4-carboxylate]",–,IC50 (human P2X3 receptor; [3]): 13 nM
38,"CCc1cnc(-c2cc(OC[C@@H]3CCOC3)cc(C(=O)N[C@H](C)c3ccc(C)nn3)c2)s1 [Example 258, 3-(5-ethyl-1,3-thiazol-2-yl)-N-[(1R)-1-(6-methylpyridazin-3-yl)ethyl]-5-[(3R)-tetrahydrofuran-3-ylmethoxy]benzamide]",–,IC50 (human P2X3 receptor; [3]): 4 nM
–,"Cc1cnc(-c2cc(OC3CCCNC3)cc(C(=O)N[C@H](C)c3cnc(C(F)(F)F)nc3)c2)s1 (single isomer, unassigned) [Example 205]",4,–
–,"CCc1cnc(-c2cc(OC[C@H]3CCOC3)cc(C(=O)N[C@H](C)c3ccc(C)nn3)c2)s1 [Example 276, 3-(5-ethyl-1,3-thiazol-2-yl)-N-[(1R)-1-(6-methylpyridazin-3-yl)ethyl]-5-[(3S)-tetrahydrofuran-3-ylmethoxy]benzamide]",–,IC50 (human P2X3 receptor; read-out: hP2X3 IC50): 10 nM
546,"Cc1cnc(-c2cc(O[C@H]3CCOC3)cc(C(=O)NC(C)c3nnc(C(F)(F)F)s3)c2)s1 (single isomer, unassigned) [Example 200]",30,–
–,"Cc1cnc(-c2cc(OC(C)C(C)O)cc(C(=O)N[C@H](C)c3ccc(C(F)(F)F)nn3)c2)s1 (single isomer, unassigned) [Example 230]",2,–
≥ 10000,"Cc1cnc(-c2cc(OC[C@H]3CN(C(=O)OC(C)(C)C)CCO3)cc(C(=O)N[C@@H](C)c3cnc(C(F)(F)F)nc3)c2)s1 [Example 412, tert-butyl (2R)-2-{[3-(5-methyl-1,3-thiazol-2-yl)-5-({(1S)-1-[2-(trifluoromethyl)pyrimidin-5-yl]ethyl}carbamoyl)phenoxy]methyl}morpholine-4-carboxylate]",–,–
245,"Cc1cnc(-c2cc(O[C@@H]3CCOC3)cc(C(=O)NC(C)c3nnc(C(F)(F)F)s3)c2)s1 (single isomer, unassigned) [Example 198]",30,–
–,"Cc1cnc(-c2cc(OC3CCOCC3)cc(C(=O)NC(C)c3nnc(C(F)(F)F)s3)c2)s1 (single isomer, unassigned) [Example 196, 3-(5-methyl-1,3-thiazol-2-yl)-5-(tetrahydro-2H-pyran-4-yloxy)-N-{1-[5-(trifluoromethyl)-1,3,4-thiadiazol-2-yl]ethyl}benzamide]",19,–
1680,"Cc1cnc(-c2cc(OCC34CNC(CO3)C4)cc(C(=O)N[C@H](C)c3cnc(C(F)(F)F)nc3)c2)s1 (stereo partly drawn) [Example 407, 3-(5-Methyl-1,3-thiazol-2-yl)-5-[2-oxa-5-azabicyclo[2.2.1]hept-1-ylmethoxy]-N-{(1R)-1-[2-(trifluoromethyl)pyrimidin-5-yl]ethyl}benzamide]",–,–
–,"Cc1cnc(-c2cc(OC(C)C(C)O)cc(C(=O)N[C@H](C)c3ccc(C(F)(F)F)nn3)c2)s1 (single isomer, unassigned) [Example 183]",7,–
–,"Cc1cnc(-c2cc(OC3CCCNC3)cc(C(=O)N[C@H](C)c3cnc(C(F)(F)F)nc3)c2)s1 (single isomer, unassigned) [Example 206]",31,–
–,"Cc1cnc(-c2cc(OCC3CC3)cc(C(=O)N[C@H](C)c3cnc(C(F)(F)F)nc3)c2)s1 [Example 1, 3-(Cyclopropylmethoxy)-5-(5-methyl-1,3-thiazol-2-yl)-N-{(1R)-1-[2-(trifluoromethyl)pyrimidin-5-yl]ethyl}benzamide]",–,IC50 (human P2X3 receptor; [3]): 4 nM
–,"Cc1cnc(-c2cc(OC(C)C(C)O)cc(C(=O)N[C@H](C)c3cnc(C(F)(F)F)nc3)c2)s1 (single isomer, unassigned) [Example 162]",–,IC50 (human P2X3 receptor; hP2X3 IC50 (nM)): 5 nM
–,"Cc1cnc(-c2cc(OCC3(C)CCCO3)cc(C(=O)N[C@H](C)c3cnc(C(F)(F)F)nc3)c2)s1 (single isomer, unassigned) [Example 331]",7,–
–,"Cc1cnc(-c2cc(OC(C)C(C)O)cc(C(=O)N[C@H](C)c3ccc(C(F)(F)F)nn3)c2)s1 (single isomer, unassigned) [Example 231]",–,IC50 (human P2X3 receptor; hP2X3 IC50 (nM)): 6 nM
1240,"Cc1cnc(-c2cc(OC3C4COCC3CN(C)C4)cc(C(=O)N[C@H](C)c3cnc(C(F)(F)F)nc3)c2)s1 (stereo partly drawn) [Example 341, 3-[(7-methyl-3-oxa-7-azabicyclo[3.3.1]non-9-yl)oxy]-5-(5-methyl-1,3-thiazol-2-yl)-N-{(1R)-1-[2-(trifluoromethyl)pyrimidin-5-yl]ethyl}benzamide]",–,–

Compound,IC50 (human P2X2/3 receptor; [1]) [nM],IC50 (human P2X3 receptor; [2]) [nM],also measured
"Cc1cnc(-c2cc(OCC3(C)CCOC3)cc(C(=O)N[C@H](C)c3cnc(C(F)(F)F)nc3)c2)s1 (stereo partly drawn) [Example 332, 3-[(3-methyltetrahydrofuran-3-yl)methoxy]-5-(5-methyl-1,3-thiazol-2-yl)-N-{(1R)-1-[2-(trifluoromethyl)pyrimidin-5-yl]ethyl}benzamide]",174,4,–
"CCc1cnc(-c2cc(OC[C@H]3CCOC3)cc(C(=O)N[C@H](C)c3ccc(C(F)(F)F)nn3)c2)s1 [Example 296, 3-(5-ethyl-1,3-thiazol-2-yl)-5-[(3S)-tetrahydrofuran-3-ylmethoxy]-N-{(1R)-1-[6-(trifluoromethyl)pyridazin-3-yl]ethyl}benzamide]",133,–,–
"Cc1cnc(-c2cc(OC(C)C(C)O)cc(C(=O)N[C@H](C)c3cnc(C(F)(F)F)nc3)c2)s1 (single isomer, unassigned) [Example 339]",251,–,IC50 (human P2X3 receptor; read-out: hP2X3 IC50): 5 nM
"Cc1cnc(-c2cc(OC(C)C(C)O)cc(C(=O)N[C@H](C)c3cnc(C(F)(F)F)nc3)c2)s1 (stereo partly drawn) [Example 338, 3-[(3-hydroxybutan-2-yl)oxy]-5-(5-methyl-1,3-thiazol-2-yl)-N-{(1R)-1-[2-(trifluoromethyl)pyrimidin-5-yl]ethyl}benzamide]",72,–,IC50 (human P2X3 receptor; [3]): 4 nM
"Cc1cnc(-c2cc(OC3CCN(CC(F)(F)F)CC3)cc(C(=O)N[C@H](C)c3cnc(C(F)(F)F)nc3)c2)s1 [Example 303, 3-(5-methyl-1,3-thiazol-2-yl)-5-{[1-(2,2,2-trifluoroethyl)piperidin-4-yl]oxy}-N-{(1R)-1-[2-(trifluoromethyl)pyrimidin-5-yl]ethyl}benzamide]",38,–,IC50 (human P2X3 receptor; [3]): 5 nM
"Cc1cnc(-c2cc(OCC3(C)CCCO3)cc(C(=O)N[C@H](C)c3cnc(C(F)(F)F)nc3)c2)s1 (stereo partly drawn) [Example 329, 3-[(2-methyltetrahydrofuran-2-yl)methoxy]-5-(5-methyl-1,3-thiazol-2-yl)-N-{(1R)-1-[2-(trifluoromethyl)pyrimidin-5-yl]ethyl}benzamide]",120,–,–
"CCc1cnc(-c2cc(OC[C@@H]3CCCO3)cc(C(=O)N[C@H](C)c3ccc(C)nn3)c2)s1 [Example 282, 3-(5-ethyl-1,3-thiazol-2-yl)-N-[(1R)-1-(6-methylpyridazin-3-yl)ethyl]-5-[(2S)-tetrahydrofuran-2-ylmethoxy]benzamide]",209,–,IC50 (human P2X3 receptor; read-out: hP2X3 IC50): 8 nM
"CCc1cnc(-c2cc(OC[C@@H]3CCOC3)cc(C(=O)N[C@H](C)c3ccc(C(F)(F)F)nn3)c2)s1 [Example 292, 3-(5-ethyl-1,3-thiazol-2-yl)-5-[(3R)-tetrahydrofuran-3-ylmethoxy]-N-{(1R)-1-[6-(trifluoromethyl)pyridazin-3-yl]ethyl}benzamide]",52,–,–

# Reference: patent US10174016B2 (BAYER AKTIENGESELLSCHAFT, priority 2014, dated 2019)
